{"source": "patent US4537772A", "about": "“Enhancing absorption of drugs from gastrointestinal tract using acylcarnitines” (Merck & Co., Inc., priority 1984, dated 1985)", "experiment": "Rectal absorption of target drug from aqueous microenema, percent bioavailability versus intravenous administration", "conditions": "rats"}
{"substance": "Gentamicin sulfate", "values": [{"measurement": "Percent Bioavailability (mean ± SD) with Palmitoylcarnitine-Cl", "setting": "target drug (2.5 mg; 0.1 mg for 363,586) with 5 mg palmitoylcarnitine", "value": "42 ± 5.2", "unit": "%"}, {"measurement": "Percent Bioavailability (mean ± SD) Control", "setting": "target drug alone (2.5 mg; 0.1 mg for 363,586), absence of palmitoylcarnitine", "value": "4 ± 1.2", "unit": "%"}]}
